The nature of data set [1]: Pharmacokinetic test in mice. The conditions noted are these: for CL: IV: 1 mg/kg; for AUC: PO: 10 mg/kg.
A further data set deals with integrin α4β7 (Homo sapiens, UniProt P13612+P26010). Kind of data set: Integrin α4β7 cell adhesion assay (RPMI8866 cells on MAdCAM-1). The format is cell-based. The conditions noted are these: read-out: RPMI-8866 (α4β7)/MadCAM-1 IC50; RPMI8866 cells adhering to MAdCAM-1; α4β7-mediated cell adhesion.
Another data set addresses integrin α4β1 (Homo sapiens, UniProt P05556+P13612). Kind of data set: Integrin α4β1-mediated cell adhesion assay (Jurkat cells on VCAM). The format is cell-based. The conditions noted are these: for pIC50: read-out: Jurkat (α4β1)/VCAM-1 IC50, Jurkat cells adhering to VCAM-1, α4β1-mediated cell adhesion; for α4β1/α4β7: selectivity ratio, Jurkat (α4β1)/VCAM-1 IC50 over RPMI-8866 (α4β7)/MadCAM-1 IC50.

Sequences of proteins named here, by UniProt entry; tags and fusion partners are left off. Residues count along the entry.
UniProt P13612, 34-1032 limits assumed: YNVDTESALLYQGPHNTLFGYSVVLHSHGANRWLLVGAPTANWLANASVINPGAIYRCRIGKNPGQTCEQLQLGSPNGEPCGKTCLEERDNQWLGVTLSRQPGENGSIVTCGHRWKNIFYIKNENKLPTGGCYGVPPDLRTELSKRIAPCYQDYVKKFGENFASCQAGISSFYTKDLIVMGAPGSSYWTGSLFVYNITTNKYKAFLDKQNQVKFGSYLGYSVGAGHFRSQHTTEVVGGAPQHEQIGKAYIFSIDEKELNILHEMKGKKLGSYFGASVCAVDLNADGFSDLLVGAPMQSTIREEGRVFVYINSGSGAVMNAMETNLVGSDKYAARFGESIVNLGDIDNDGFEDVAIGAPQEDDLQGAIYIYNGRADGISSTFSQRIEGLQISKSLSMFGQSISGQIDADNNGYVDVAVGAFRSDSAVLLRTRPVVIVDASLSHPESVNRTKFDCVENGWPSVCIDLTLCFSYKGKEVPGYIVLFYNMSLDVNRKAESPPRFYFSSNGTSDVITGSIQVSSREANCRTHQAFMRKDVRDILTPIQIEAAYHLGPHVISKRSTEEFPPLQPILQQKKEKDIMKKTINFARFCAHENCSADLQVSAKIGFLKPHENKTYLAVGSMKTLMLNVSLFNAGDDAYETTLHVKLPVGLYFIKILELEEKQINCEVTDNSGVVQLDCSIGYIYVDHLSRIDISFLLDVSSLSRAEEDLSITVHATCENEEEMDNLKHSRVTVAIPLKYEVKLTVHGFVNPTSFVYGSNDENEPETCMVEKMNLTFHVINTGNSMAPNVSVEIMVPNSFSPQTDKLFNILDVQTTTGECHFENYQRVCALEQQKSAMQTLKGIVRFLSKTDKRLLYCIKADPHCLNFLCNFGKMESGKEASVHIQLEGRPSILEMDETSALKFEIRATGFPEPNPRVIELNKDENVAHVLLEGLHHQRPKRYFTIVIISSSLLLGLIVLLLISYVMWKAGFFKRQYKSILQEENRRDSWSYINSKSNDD
UniProt P26010, 20-798 limits assumed: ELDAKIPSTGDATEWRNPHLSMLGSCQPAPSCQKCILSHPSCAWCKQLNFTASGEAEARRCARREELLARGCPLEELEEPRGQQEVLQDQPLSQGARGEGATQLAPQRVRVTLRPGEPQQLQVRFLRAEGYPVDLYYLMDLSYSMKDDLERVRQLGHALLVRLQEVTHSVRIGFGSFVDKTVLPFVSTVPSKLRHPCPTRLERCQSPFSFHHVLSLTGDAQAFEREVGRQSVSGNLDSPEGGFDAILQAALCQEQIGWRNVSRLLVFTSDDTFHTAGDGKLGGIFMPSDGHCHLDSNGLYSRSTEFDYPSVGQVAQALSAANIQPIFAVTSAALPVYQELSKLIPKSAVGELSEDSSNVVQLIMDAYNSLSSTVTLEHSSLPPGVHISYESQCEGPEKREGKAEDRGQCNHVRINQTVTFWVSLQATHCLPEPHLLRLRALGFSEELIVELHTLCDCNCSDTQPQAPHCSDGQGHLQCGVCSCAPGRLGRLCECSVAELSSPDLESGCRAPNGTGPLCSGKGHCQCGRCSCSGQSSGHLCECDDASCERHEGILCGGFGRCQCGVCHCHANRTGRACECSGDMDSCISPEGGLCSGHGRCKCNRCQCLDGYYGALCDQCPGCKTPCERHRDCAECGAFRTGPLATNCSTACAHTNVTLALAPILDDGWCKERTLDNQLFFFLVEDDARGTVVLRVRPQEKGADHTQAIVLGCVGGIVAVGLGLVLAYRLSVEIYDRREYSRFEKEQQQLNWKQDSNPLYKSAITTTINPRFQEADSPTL
UniProt P05556, 21-798 limits assumed: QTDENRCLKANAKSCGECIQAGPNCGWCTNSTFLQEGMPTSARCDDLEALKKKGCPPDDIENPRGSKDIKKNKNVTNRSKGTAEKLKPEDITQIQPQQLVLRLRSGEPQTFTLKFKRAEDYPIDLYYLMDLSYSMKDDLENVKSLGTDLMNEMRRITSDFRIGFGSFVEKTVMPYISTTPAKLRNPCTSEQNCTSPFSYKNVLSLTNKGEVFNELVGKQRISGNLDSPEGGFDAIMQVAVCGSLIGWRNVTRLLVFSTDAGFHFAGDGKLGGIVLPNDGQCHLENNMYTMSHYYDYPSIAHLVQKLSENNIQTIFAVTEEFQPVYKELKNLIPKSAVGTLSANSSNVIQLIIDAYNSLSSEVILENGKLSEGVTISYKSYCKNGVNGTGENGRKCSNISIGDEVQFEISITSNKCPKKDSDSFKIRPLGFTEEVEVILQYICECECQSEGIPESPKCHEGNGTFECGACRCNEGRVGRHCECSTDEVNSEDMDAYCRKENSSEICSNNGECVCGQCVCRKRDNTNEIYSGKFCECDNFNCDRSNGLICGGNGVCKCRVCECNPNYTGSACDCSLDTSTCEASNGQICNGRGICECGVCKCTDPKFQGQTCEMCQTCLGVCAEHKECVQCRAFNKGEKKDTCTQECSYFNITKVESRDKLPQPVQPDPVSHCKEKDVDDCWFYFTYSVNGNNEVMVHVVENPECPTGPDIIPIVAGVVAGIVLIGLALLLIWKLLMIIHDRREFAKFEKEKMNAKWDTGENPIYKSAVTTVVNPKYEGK

The nature of data set [2]: Test of stability in liver microsomes (mouse). The conditions noted are these: 1 μM test compound, NADPH, 37° C.
Data set [3] can be described thus: Test of stability in liver microsomes (monkey). The conditions noted are these: 1 μM test compound, NADPH, 37° C.
The nature of data set [4]: Test of stability in liver microsomes (rat). The settings on record: 1 μM test compound, NADPH, 37° C.
Data set [5] in a line: Pharmacokinetic test in rats. The conditions noted are these: for CL: IV: 1 mg/kg; for AUC: PO: […].

Molecules are shown by their SMILES. pIC50: −log10 of the molar value. Some results are limits rather than exact numbers.

In the case of `COc1cc(C)c(-c2c(F)c(C(CC(=O)O)NC(=O)[C@H](CC(C)C)n3cc(CCN4CCC4)c(C(F)(F)F)cc3=O)c(F)c3c2CCC3)c(C)c1` (stereo partly shown), in data set [1], the CL was 13.3 mL/kg/min and the area under the curve (AUC) came out at 1259 ng·h/mL. Besides, on integrin α4β7, the pIC50 was greater than 9.30. On integrin α4β1, the pIC50 is less than 6.52 and the α4β1/α4β7 came out at 3651. In data set [2], the “Hepatic intrinsic clearance CLint(liver)” value is less than 29.5 mL/min/kg, the “T1/2” value is recorded as greater than 18 min and the “Test compound after 1 h incubation Remaining % (T = 60 min)” value is 83.8%. Further, in data set [3], the “Hepatic intrinsic clearance CLint(liver)” value came to 31.3 mL/min/kg, the “T1/2” value was found to be 59.8 min and the “Test compound after 1 h incubation Remaining % (T = 60 min)” value was 47.2%. In addition, in data set [4], the “Hepatic intrinsic clearance CLint(liver)” value turned out to be 19.5 mL/min/kg, the “T1/2” value was determined as 128 min and the “Test compound after 1 h incubation Remaining % (T = 60 min)” value is on record as 74.5%. In data set [5], this compound registered a CL of 8.76 mL/kg/min and an AUC of 3084 ng·h/mL.

Consider `[2H]C([2H])([2H])Oc1cc(C)c(-c2c(F)c(C(CC(=O)O)NC(=O)[C@H](CC(C)C)n3cc(CCN(C)C)c(C(F)(F)F)cc3=O)c(F)c3c2CCC3)c(C)c1` (stereo partly shown), for which, at integrin α4β7, the pIC50 is greater than 9.30.

As for `COc1cc(C)c(-c2c(F)c(C(CC(=O)O)NC(=O)C(CC(C)C)n3cc(CCN4CC(C)(F)C4)c(=O)n(C)c3=O)c(F)c3c2CCC3)c(C)c1` (stereo not shown), the figures for the pIC50 at integrin α4β7 and at integrin α4β1 were greater than 8.00 and less than 5.40, respectively. Moreover, the α4β1/α4β7 at integrin α4β1 is listed as greater than 1200.

In data set [1], `Cc1cc(F)cc(C)c1-c1c(F)c(C(CC(=O)O)NC(=O)[C@H](CC(C)C)n2cc(CCN3CCC3)c(C(F)(F)F)cc2=O)c(F)c2c1CCC2` (stereo partly shown) yielded a CL of 14.0 mL/kg/min and an area under the curve (AUC) of 5501 ng·h/mL. Moreover, the F in data set [1] (PO: 10 mg/kg vs IV: 1 mg/kg) is 45.9%. In addition, the pIC50 at integrin α4β7 was no less than 9.30. In addition, on integrin α4β1, the pIC50 is less than 7.00 and the α4β1/α4β7 came to 240. Moreover, in data set [2], the “Hepatic intrinsic clearance CLint(liver)” value amounted to 34.6 mL/min/kg, the “T1/2” value was 159 min and the “Test compound after 1 h incubation Remaining % (T = 60 min)” value came to 80.8%. In data set [3], the “Hepatic intrinsic clearance CLint(liver)” value worked out at 99.2 mL/min/kg, the “T1/2” value is 18.9 min and the “Test compound after 1 h incubation Remaining % (T = 60 min)” value is listed as 11.6%. For the same compound, in data set [4], the “Hepatic intrinsic clearance CLint(liver)” value is 15.1 mL/min/kg, the “T1/2” value turned out to be 165 min and the “Test compound after 1 h incubation Remaining % (T = 60 min)” value worked out at 77.3%. In data set [5], this compound had a CL of 8.84 mL/kg/min and an AUC of 3172 ng·h/mL.

In the case of `Cc1cc(F)cc(C)c1-c1c(F)c(C(CC(=O)O)NC(=O)[C@H](CC(C)C)n2nc(CCN3CC(F)C3)cc(C)c2=O)c(F)c2c1CCC2` (stereo partly shown), the pIC50 is greater than 9.00 on integrin α4β7 and 7.04 at integrin α4β1. The α4β1/α4β7 on integrin α4β1 is listed as greater than 100.

For `CCN(CC)CCc1cn([C@@H](CC(C)C)C(=O)NC(CC(=O)O)c2c(F)c3c(c(-c4c(C)cc(F)cc4C)c2F)CCC3)c(=O)cc1C(F)(F)F` (stereo partly shown), the pIC50 is greater than 9.30 on integrin α4β7 and less than 7.30 at integrin α4β1. For the same compound, at integrin α4β1, the α4β1/α4β7 was 194.

Values taken from patent publication US20260274797A1, “PROPIONIC ACID DERIVATIVE AND USE THEREOF IN MEDICINE” (Xizang Haisco Pharmaceutical Co., Ltd., priority 2022, published 2026).
